Test: Binding affinity to CFTR F508 deletion mutant expressed in forskolin-stimulated FRT cells assessed as increase in iodine influx measured as YFP quenching rate after 24 hrs by fluorescence assay
Format: cell-based
Summary of the method: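 ΔF508-CFTR and halide-sensitive YFP coexpressed in FRT cells, held at 27 °C for 24 h for rescue, then stimulated 30–40 min with 20 μM forskolin with or without compound at 0.2, 2 and 20 μM. Fluorescence read before and after I– addition (100 mM final). Normalized decay fitted exponentially for maximal quenching rate; dose–response fitted with Hill equation for potency and maximal effect. Three independent determinations.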

Question: Which Kd does the source give for `O=c1c(-c2ccc(O)cc2)coc2cc(O)cc(O)c12` [GENISTEIN] here?
Answer: The Kd was 9.4 µM.

— ChEMBL document CHEMBL1811821, “Cystic fibrosis: a new target for 4-Imidazo[2,1-b]thiazole-1,4-dihydropyridines” (J Med Chem, 2011)
